In PubChem BioAssay AID688 (PCMD, 2007) one finds inhibition data, which are given here for 17 compounds.

A word on the inhibition: it is the change of the read-out against control, counted positive when it falls.

Only a part is listed here, and it is no random draw. Activity calls are given as the source filed them.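 Rule for the calls: active = mutant luminescence inhibited past about 50% while wild type luminescence and mutant growth stay under set limits (limit read from the data); inconclusive = mutant versus wild type luminescence inhibition gap past a set limit; inactive = the rest.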

The assay is described as follows: mutant yeast GCN4 reporter luminescence inhibitors – S. cerevisiae, eIF2B-epsilon R284H, Beta-Glo luminescence, primary screen (AID 688). The following applies: GCN4-lacZ luminescence, hits give high values, screened at 25 µM (by protocol).
On to `O=C(OC1CN2CCC1CC2)c1cccc(Cl)c1` (configuration not stated), for which the inhibition was inactive: 19.8%. Regarding `O=P1(Nc2nc3ccc(Cl)cc3s2)COc2ccccc2O1` (configuration not stated), the inhibition was inactive: 13.8%. On to `Cc1c(NP(C)(=O)Oc2ccc(C(C)C)cc2)c(=O)n(-c2ccccc2)n1C` (configuration not stated), for which the inhibition was inactive: -46.3%. In the case of `Cc1c2non([O-])c-2c(C)[n+](=O)[n+]1[O-]` it was inactive: 8.97%. As for `Oc1ccccc1CNc1ccccn1`, the inhibition is inactive: 14.5%.

As to `COc1ccc(OP(C)(=O)Nc2ccccn2)cc1` (configuration not stated), the inhibition was inactive: 22.9%. Consider `CN1CCCC(OC(=O)C(c2ccccc2)c2ccccc2)C1` (configuration not stated), for which the inhibition is inactive: -17.4%. For `CC1CCN(C(=O)Oc2c(Cl)cc(Cl)c3cccnc23)CC1`, the inhibition was inactive: 31.3%. As to `O=[N+]([O-])c1cccc2n[nH]nc12`, the inhibition was inactive: 18.5%. In the case of `CCOP(C)(=S)SCC(=O)NC(C)C(=O)O` (configuration not stated), the inhibition was inactive: 7.15%. On to `O=C(OC1CN2CCC1CC2)C12CC3CC(CC(C3)C1)C2` (configuration not stated), for which the inhibition was inactive: 13%. The value for `Cc1ccc(NP(C)(=O)Oc2ccccc2)c(C)c1` (configuration not stated) was inactive: 22.8%. For `Cc1cc(C)cc(OP(C)(=O)Nc2ccccn2)c1` (configuration not stated), the inhibition was inactive: 11.5%. Consider `CC1(CBr)Cn2c(nc3ccccc3c2=O)S1` (configuration not stated), for which the inhibition was inactive: 33.4%. In the case of `O=P1(Nc2ccc(Br)cn2)COc2ccccc2OC1` it was inactive: 25.2%; in that of `O=P1(Nc2ncccn2)COc2ccccc2OC1`, inactive: 23.4%; in that of `COc1ccccc1OP(C)(=O)Nc1c(C)cccc1C` (configuration not stated), inactive: 11.9%.
